Amino acid sequences for entries named in this document (tags omitted).
Importin subunit beta-1 (Homo sapiens), Q14974, UniProt Q14974, whole entry, looked up: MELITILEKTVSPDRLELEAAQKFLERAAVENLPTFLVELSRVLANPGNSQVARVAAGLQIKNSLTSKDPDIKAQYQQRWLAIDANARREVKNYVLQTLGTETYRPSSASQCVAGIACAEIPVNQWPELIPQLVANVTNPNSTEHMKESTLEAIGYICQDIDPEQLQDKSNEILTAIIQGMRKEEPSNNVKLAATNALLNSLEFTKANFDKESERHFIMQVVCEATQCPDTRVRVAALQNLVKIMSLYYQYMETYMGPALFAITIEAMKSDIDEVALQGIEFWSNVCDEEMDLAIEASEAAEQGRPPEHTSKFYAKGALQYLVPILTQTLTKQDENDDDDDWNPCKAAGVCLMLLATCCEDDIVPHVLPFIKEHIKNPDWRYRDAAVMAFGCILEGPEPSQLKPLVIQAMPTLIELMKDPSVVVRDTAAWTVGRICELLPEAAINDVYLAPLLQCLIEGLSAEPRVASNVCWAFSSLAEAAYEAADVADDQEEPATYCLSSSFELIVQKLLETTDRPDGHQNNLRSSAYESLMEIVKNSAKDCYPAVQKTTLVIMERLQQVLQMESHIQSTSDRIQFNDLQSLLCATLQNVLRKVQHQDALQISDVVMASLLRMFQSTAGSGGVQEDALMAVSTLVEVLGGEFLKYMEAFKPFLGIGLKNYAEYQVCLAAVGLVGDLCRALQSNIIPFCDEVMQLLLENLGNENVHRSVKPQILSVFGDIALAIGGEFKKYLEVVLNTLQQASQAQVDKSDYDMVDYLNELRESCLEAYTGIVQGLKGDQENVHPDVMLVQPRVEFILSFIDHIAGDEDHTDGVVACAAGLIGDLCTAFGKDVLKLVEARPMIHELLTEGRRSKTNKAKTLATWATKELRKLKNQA

# Compound activity from PubChem BioAssay.
# An excerpt weighted towards active compounds, which were near 0.44% of everything screened.
# BCR signal inh: qHTS Assay to Find Inhibitors of Chronic Active B-Cell Receptor Signaling; ABC-DLBCL IkBa-CBG/CBR reporter, luminescence ratio, 4 h; Potency, µM (titrated, usually from 46.1 µM), without a hit: top-dose activity change, negative = inhibition, usual class: inhibitors; 0.05% of 340,000 active; AID 493014, 2011; active = well fitted inhibition curve with a large enough effect in the signal ratio, with a control signal flat, not every such curve was filed as active; inconclusive = small, poorly fitted or top-dose-only effect, or effect the other way, or a change in a side signal; the % refers to the signal ratio;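 note: plate controls were basal doxycycline-induced cells for no effect and cells given 10 µM MG132 for full effect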
#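 TMD8 human ABC-DLBCL cells with doxycycline-inducible IκBα–green luciferase fusion and unfused red luciferase, in 0.5% FBS medium; compounds up to 46 uM, 4 h at 37C. Green/red luminescence ratio, filter-overlap corrected, fitted to concentration-response curves.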
# Rango-impB inh: qHTS Assay for Inhibitors of Rango (Ran-regulated importin-beta cargo) - Importin beta complex formation. Potency, µM (highest dose often 92.2 µM), without a hit: top-dose inhibition of complex formation. 0.031% of 340,000 active. Rango CFP/YFP FRET sensor + importin beta, 45 min. Importin subunit beta-1 (Homo sapiens), Q14974;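 note: 0% = DMSO wells and 100% = buffer wells lacking importin beta; nearly all actives have a fitted effect of over 15% in size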
#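 FRET biosensor (snurportin 1 IBB flanked by EYFP and cerulean), 50 nM, with compound 5 min, then 0.125 microM importin beta in PBS, 1 mM DTT, 0.02% Tween-20, 0.1% BSA. CFP/YFP ratio read after 45 min at room temperature; pre-read flags interference.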
# LMNA splice mod: qHTS Assay for Modulators of Lamin A Splicing; AID 1487, 2009; Potency, µM (top dose mostly 46.1 µM), for the others: top-dose ratio change, negative = inhibition, actives largely listed as inhibitors; HeLa LMNA splicing GFP/RFP minigene ratio, 48 h; 0.01% of 200,000 active; active = well fitted inhibition curve with a large enough effect in the signal ratio, with a control signal flat, not every such curve was filed as active; inconclusive = small, poorly fitted or top-dose-only effect, or effect the other way, or a change in a side signal; the % refers to the signal ratio; note: % is set by controls: 0 for no effect and ±100 for the full control effect
#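 Read-out is the ratio of GFP to DsRed2 object intensity, acquired by 488 nm laser-scanning cytometry on HeLa lamin A-EGFP minigene reporter cells. Compound incubation 48 hrs at 37 °C in Opti-MEM with 2% FBS; DMSO 0.5% final.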
# Rango release inh: qHTS Assay for Inhibitors of RanGTP induced Rango (Ran-regulated importin-beta cargo) - Importin beta complex dissociation | Snurportin-1 (Homo sapiens) + GTP-binding nuclear protein Ran (Homo sapiens) + Importin … | Biochemical FRET Rango-importin beta, RanGTP-induced dissociation | Potency, µM (top dose mostly 46.1 µM), for inactives: top-dose activity change, negative = inhibition | 0.071% of 340,000 active; note: % of control where 0% means no effect; nearly all actives have a fitted effect of over 45% in size
#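 Quantitative HTS using a FRET biosensor: 0.1 uM Rango, 0.25 uM importin beta, 0.6 uM Ran, 2 mM GTP, 0.2 uM RCC1 final, PBS with DTT, Tween-20 and BSA. Post-read taken 45 min after Ran addition.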
# KinaseGlo FLuc: Counterscreen for Luciferase (Kinase-Glo TM) Inhibition; Luciferin 4-monooxygenase (Photuris pensylvanica), Q27757; Kinase-Glo luciferase, ATP luminescence, 8 min; Potency, µM (top dose mostly 38.3 µM), for the others: top-dose activity change, negative = inhibition, hits mostly inhibitors; 0.28% of 200,000 active; AID 1379, 2008; active = well fitted curve in the direction sought with a large enough effect; inconclusive = small, poorly fitted or top-dose-only effect, or another doubt; inactive = no such curve, though single readings can be large; an effect the other way counts as inactive or inconclusive; note: % is set by controls: 0 for no effect and ±100 for the full control effect; nearly all actives have a fitted effect of over 60% in size
#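 Luminescence was the read-out, taken after 8-minute incubation at ambient temperature. Luciferase turned over luciferin with 10 uM ATP in imidazole pH 7.2 buffer containing KCl, MgCl2, Tween 20 and BSA.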
# Tb PFK block: qHTS Assay to Find Inhibitors of T. brucei phosphofructokinase. 0.17% of 330,000 active. ATP-dependent 6-phosphofructokinase (Trypanosoma brucei brucei), O15648. T. brucei PFK, ADP-Glo luminescence. Potency, µM (highest dose often 57.5 µM), for the others: at the top dose activity, negative = inhibition, most hits filed as inhibitors; active = well fitted curve in the direction sought with a large enough effect; inconclusive = small, poorly fitted or top-dose-only effect, or another doubt; inactive = no such curve, though single readings can be large; an effect the other way counts as inactive or inconclusive;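 note: 0% = uninhibited 1x PFK enzyme wells and -100% = no-enzyme wells; nearly all actives have a fitted effect of over 60% in size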
#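 Activity is normalized to no-enzyme wells (full inhibition) and 1.25 nM enzyme wells (no inhibition). Reaction: 0.5 mM F6P, 0.1 mM ATP, 45 min RT, ADP-Glo luminescence; concentration-response curves fitted and classed by quality.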
# Active calls of the source: *; ? = inconclusive; · = not tested or not shown; ! = not active in a repeat; [ ] = dose if it differs, or a comment. Unless noted, calls come from the whole dose curve. Potency is the fitted concentration of half-maximal effect.
SMILES,BCR signal inh,Rango-impB inh,LMNA splice mod,Rango release inh,KinaseGlo FLuc,Tb PFK block
CCOc1cc(N2CCOCC2)c(OCC)cc1NC(=O)COC(=O)CCOc1ccc(C)cc1,?,0%,·,5%,·,-1%
Cc1cc(NC(=O)C(C)C)ncc1NC(=O)c1cccc(F)c1,?,-1%,0%,-6%,0%,-1%
O=C(Nc1ccc(NC(=O)c2ccco2)nc1)c1ccccn1,?,-2%,?,1%,10µM*,-6%
CCC(=O)Nc1cc(C)c(NC(=O)c2ccco2)cn1,1%,4%,?,0%,4%,1%
CCCC(=O)Nc1cnc(NC(=O)c2cccc(F)c2)cc1C,?,3%,-11%,-2%,7.1µM*,-25%
Cc1cc(NC(=O)c2ccccc2)ncc1NC(=O)c1ccco1,?,-1%,-10%,-18%,2.2µM*,?
CC(C)(C)NC(=O)c1ccc2c(c1)C(=O)N(Cc1ccco1)C2=O,0%,0%,·,18%,·,-3%
CN(Cc1ccco1)c1ncnc2ccc(-c3ccc4c(ccn4C)c3)cc12,6.5µM*,3%,·,-4%,·,-3%
CCOc1cccc(C(=O)Nc2nc(-c3ccc(S(=O)(=O)N4CCOCC4)cc3)cs2)c1,-7%,65µM*,?,-5%,0%,12%
CCOC(=O)COn1c(=O)c(-c2ccc(C)cc2)[n+]([O-])c2ccccc21,2%,-2%,·,-9%,·,3%
CCOC(=O)COn1c(=O)c(-c2ccco2)[n+]([O-])c2ccccc21,?,?,2%,18µM*,·,6%
CC(C)(C)NC(=O)c1cnn2c(C(F)F)cc(-c3ccccc3)nc12,9%,·,?,·,·,·
CNC(=O)c1cc2cc(OC)ccc2oc1=O,21%,?,11%,?,1%,-2%
CC1=NN(Cc2ccccc2)C(=O)C1C(c1ccccc1)C(C#N)C#N (stereo not drawn),?,-1%,11%,-11%,-1%,-8%
CC1=NN(Cc2ccccc2)C(=O)C1C(c1ccc(Cl)cc1)C(C#N)C#N (stereo not drawn),21µM*,-3%,-15%,-9%,-1%,1%
O=C(c1ccc(Cl)s1)N1CCc2ccccc21,3%,2%,7%,8%,-26%,-10%
CCc1sc(C(=O)N2CCc3ccccc32)cc1C,-2%,-2%,-3%[46 µM],25%,11µM*,-6%
CCCCCCCCCCCCCCCCn1cc[n+](C)c1,-12%,65µM*,·,?,0%,0%
O=C1/C(=C/c2cccnc2)SC(=S)N1C1CCS(=O)(=O)C1 (stereo not drawn),?,1%,20µM*,-6%,-2%,8%
O=C(Oc1c(Cl)cc(Cl)c2cccnc12)c1cccs1,23µM*,0%,?,-8%,1%,20%
CCOc1ccc2nc(NC(=O)c3ccoc3C)sc2c1,?,-2%,?,-11%,2.8µM*,-24%
COC(=O)c1ccc(CSc2nnc3ccc4ccccc4n23)cc1,·,·,21%[46 µM],·,·,·
Cc1ccc(Oc2nc3ccccn3c(=O)c2/C=C(\C#N)C(=O)Nc2c(C)n(C)n(-c3ccccc3)c2=O)cc1,0%,-1%,?,3%,3%,3%
Cc1c(NC(=O)/C(C#N)=C/c2c(Oc3ccccc3)nc3ccccn3c2=O)c(=O)n(-c2ccccc2)n1C,18µM*,-5%,?,2%,3%,0%
Cc1nn(-c2ccccn2)c2c1C(=O)CC(C)(C)C2Br (stereo not drawn),15%,-2%,·,-13%,·,-1%

# (next part)
SMILES,BCR signal inh,Rango-impB inh,LMNA splice mod,Rango release inh,KinaseGlo FLuc,Tb PFK block
CC(=O)Nc1nc2n(n1)C(c1ccc(Cl)cc1)C=C(C)N2 (stereo not drawn),?,?,1%,13µM*,1%,-8%
CC1=CC(c2ccc(Cl)cc2)n2nc(NC(=O)c3ccccc3)nc2N1 (stereo not drawn),-2%,?,-7%,-9%,-5%,2%
COc1ccc2nc(N=Nc3ccc(N(C)C)cc3)sc2c1,?,5%,-3%,10%,11µM*,-8%
CCC(/C=C1\Sc2ccc(OC)cc2N1CCO)=C\c1sc2ccc(OC)cc2[n+]1CCO,9%,0%,?,1%,10µM*,?
CCC(/C=C1\Sc2ccc(OC)cc2N1CC)=C\c1sc2ccc(OC)cc2[n+]1CCCS(=O)(=O)[O-],?,-1%,-2%[46 µM],?,10µM*,-27%
O=C(CSc1nnc(CNC(=O)c2c(F)cccc2Cl)o1)NCc1ccc(F)cc1,?,-1%,·,28%,·,-2%
COc1ccc([N+](=O)[O-])cc1NS(=O)(=O)c1ccc(C)cc1,-1%,2%,·,-8%,·,-5%
O=c1[nH]c2ccccc2c2ccc(Cl)cc12,·,-1%,·,1%,·,·
CCOC(=O)c1c(NC(=O)c2ccc(-n3cnnn3)cc2)sc2c1CCCC2,-2%,-7%,-6%,21µM*,-2%,10%
N/C(=N\N=C\c1ccc(O)cc1)c1nonc1N,?,3%,-5%[46 µM],-4%,?,-4%
N/C(=N\N=C\c1cccc(O)c1)c1nonc1N,?,-1%,-9%[46 µM],-4%,13µM*,-5%
COc1cccc(NS(=O)(=O)c2c(C(=O)N3CCCCCC3)c(C)n(C)c2C)c1,-2%,-2%,·,-3%,·,-14%
NC(=S)n1[nH]c(-c2ccc([N+](=O)[O-])cc2)c(N=Nc2ccc(Cl)cc2)c1=O,10µM*,-2%,?,-2%,3%,-2%
Cc1ccc([N+](=O)[O-])cc1N=Nc1c(-c2ccc([N+](=O)[O-])cc2)[nH]n(C(N)=S)c1=O,?,-7%,·,2%,3%,2%
COc1ccc2c(=O)c(-c3ccc(OC)c(OC)c3)coc2c1,?,0%,·,-6%,·,-4%
COc1ccc2c(=O)c(-c3ccccc3)coc2c1,?,1%,-2%[46 µM],7%,2.8µM*!,-2%
O=C(NCCO)c1cc2cc(Cl)cc(Cl)c2oc1=O,1%,?,-9%[46 µM],18µM*,-1%,?
CCN(CC)CC(O)CN(c1ccccc1)S(=O)(=O)c1ccc2ccccc2c1 (stereo not drawn),5%,1%,·,29%,·,-2%
O=C1CCC(=O)N1OCCOc1ccccc1,1%,1%,?,0%,-2%,0%

# Full records as entered above. Order of screens: BCR signal inh	Rango-impB inh	LMNA splice mod	Rango release inh	KinaseGlo FLuc	Tb PFK block
# Listed for CN(Cc1ccco1)c1ncnc2ccc(-c3ccc4c(ccn4C)c3)cc12 → 6.5µM*	3%	·	-4%	·	-3%
# Listed for COc1ccc2c(=O)c(-c3ccc(OC)c(OC)c3)coc2c1 → ?	0%	·	-6%	·	-4%
# Listed for Cc1ccc([N+](=O)[O-])cc1N=Nc1c(-c2ccc([N+](=O)[O-])cc2)[nH]n(C(N)=S)c1=O → ?	-7%	·	2%	3%	2%
# Listed for CCOc1cc(N2CCOCC2)c(OCC)cc1NC(=O)COC(=O)CCOc1ccc(C)cc1 → ?	0%	·	5%	·	-1%
# Listed for Cc1cc(NC(=O)c2ccccc2)ncc1NC(=O)c1ccco1 → ?	-1%	-10%	-18%	2.2µM*	?
